Measured values reported in patent US9278925B2, “Substituted 3-(biphenyl-3-yl)-4-hydroxy-8-methoxy-1-azaspiro[4.5]dec-3-en-2-one” (BAYER INTELLECTUAL PROPERTY GMBH, priority 2011, dated 2016).

System: human ACC1
Assay: Human ACC1 enzyme assay (ADP-Glo)
Assay type: biochemical
Details: pairwise, same dilution series; Preparation No. 2

## CO[C@]1(C)CC[C@]2(CC1)NC(=O)C(c1cc(-c3ccc(Cl)cc3)ccc1C)=C2O [Example V.1-a, (5r,8r)-3-(4′-Chloro-4-methylbiphenyl-3-yl)-4-hydroxy-8-methoxy-8-methyl-1-azaspiro[4.5]dec-3-en-2-one]
  Ratio IC50s ACC2/ACC1 (respective measurement): 34
